Assay results reported in paper PMC5118696, “Identification of inhibitors that dually target the new permeability pathway and dihydroorotate dehydrogenase in the blood stage of Plasmodium falciparum” (Scientific Reports, 2016).

Protein sequences, listed by entry. Tags and fused reporters are not part of them. Residues count along the entry.
UniProt Q08210, 169-569: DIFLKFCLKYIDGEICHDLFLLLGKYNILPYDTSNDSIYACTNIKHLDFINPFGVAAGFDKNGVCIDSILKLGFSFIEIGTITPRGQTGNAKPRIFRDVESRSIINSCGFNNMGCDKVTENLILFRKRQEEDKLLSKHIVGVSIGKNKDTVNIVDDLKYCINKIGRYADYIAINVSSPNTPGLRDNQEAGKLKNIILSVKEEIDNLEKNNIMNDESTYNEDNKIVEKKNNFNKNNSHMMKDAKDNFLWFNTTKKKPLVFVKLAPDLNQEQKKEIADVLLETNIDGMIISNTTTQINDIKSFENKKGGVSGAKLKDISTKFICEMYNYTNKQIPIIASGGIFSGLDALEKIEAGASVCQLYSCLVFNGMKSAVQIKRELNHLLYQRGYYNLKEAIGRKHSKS

Molecular target: T1, PfDHODH (dihydroorotate dehydrogenase) (Plasmodium falciparum, UniProt Q08210)
T1 construct: gene PFF0160c; amino acids 169–569
Assay: DCIP reduction enzyme assay with recombinant PfDHODH
Format: biochemical

Compound: Cc1cc(Nc2ccc3ccccc3c2)n2ncnc2n1 [DSM-1]
- IC50: 441 nM
